# Screening data from PubChem.
# miR-21 reporter = raises the signal of a miR-21 reporter; Potency, µM (doses to about 38.3 µM), inactives show top-dose reporter change, positive = more light; HeLa miR-21 FLuc reporter, luciferase, 48 h; AID 2288; 340,000 tested, under 10 active; active = well fitted rising curve with a large enough effect; inconclusive = small, poorly fitted or top-dose-only effect; inactive = no such curve, though single readings can be large or run the other way;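 further: % of control where 0% means no effect; miR-21 action dims this reporter so a rising signal means less miR-21 action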
#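 Luminescence from a firefly luciferase reporter carrying a miR-21 binding site downstream, stably expressed under a CMV promoter in HeLa cells that make miR-21 endogenously, reports miRNA modulation after 48 h compound exposure up to approximately 40uM final.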
# uPA generation = cell surface uPA generation inhibition | Potency, µM (top dose mostly 38.3 µM), for inactives: top-dose activity change, negative = inhibition, most hits filed as inhibitors | cell surface uPA generation assay, qHTS | 0.31% of 330,000 active; active = well fitted inhibition curve with a large enough effect; inconclusive = small, poorly fitted or top-dose-only effect; inactive = no such curve, though single readings can be large or run the other way; tested in mouse RAW 264.7 cells; note: potency is the fitted concentration of half-maximal effect; % is set by controls: 0 for no effect and ±100 for the full control effect; nearly all actives have a fitted effect of over 55% in size
# DT40 TDP1 CPT = DT40-hTDP1 cell growth loss with CPT; Potency, µM (titrated, usually from 46.2 µM), for the others: at the highest dose activity change, negative = growth inhibition, most hits filed as inhibitors; 12% of 420,000 active; chicken DT40 Tdp1-/-;hTDP1 cells + 20 nM CPT, ATP luminescence, 48 h; note: potency is the fitted concentration of half-maximal effect; % is set by controls: 0 for no effect and ±100 for the full control effect; nearly all actives have a fitted effect of over 55% in size
#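 Cell growth measured by CellTiter-Glo luminescence after a minimum 48 h, 37 C compound exposure with 20 nM CPT in Tdp1-knockout DT40 cells stably expressing hTDP1, seeded 400/well; qHTS titration format.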
# DT40 TDP1 no CPT = qHTS for Inhibitors of human tyrosyl-DNA phosphodiesterase 1 (TDP1): qHTS in cells in absence of CPT; DT40 Tdp1-/- hTDP1 cells, no CPT, ATP luminescence, 48 h; 15% of 420,000 active; Potency, µM (highest dose often 46.2 µM), inactives show at the highest dose activity change, negative = growth inhibition, actives largely listed as inhibitors; AID 686978, 2013; note: potency is the fitted concentration of half-maximal effect; % is set by controls: 0 for no effect and ±100 for the full control effect; nearly all actives have a fitted effect of over 55% in size
#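 Luminescent ATP content (CellTiter-Glo) served as the growth readout. Knockout chicken DT40 cells expressing human TDP1 were exposed to compounds without camptothecin for a minimum 48 hr at 37 °C.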
# TDP1 inh = TDP1 (human) enzyme inhibition. recombinant TDP1, AlphaScreen DNA substrate cleavage. Potency, µM (top dose mostly 130 µM), inactives show top-dose activity change, negative = inhibition, most hits filed as inhibitors. 0.28% of 350,000 active. AID 485290; note: potency is the fitted concentration of half-maximal effect; % is set by controls: 0 for no effect and ±100 for the full control effect; nearly all actives have a fitted effect of over 40% in size
#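 Steps: enzyme plus compound, 15 min RT; add biotin/phosphotyrosine-FITC oligonucleotide (15 nM final), react 5 min; add donor/acceptor beads (10 ug/ml final), 10 min; read AlphaScreen. Tdp1 at 1 nM final.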
# Numbers without * were called inactive; ? = inconclusive; nt = not tested or not shown; [ ] = remark or other dose. Compounds with a hit are over-represented: about 16% of the library has one in this group of screens. Unless noted, calls come from the whole dose curve; as a rule, active = well fitted curve in the direction sought with a large enough effect; inconclusive = small, poorly fitted or top-dose-only effect, or another doubt; inactive = no such curve, though single readings can be large; an effect the other way counts as inactive or inconclusive.
cpd	mol	DT40 TDP1 CPT	TDP1 inh	uPA generation
1	O=S(=O)(O)Sc1ccccc1	23.1µM*	nt	nt
2	CSc1ccc(CN2CCC2(C)C(=O)NC2CCN(Cc3ccccc3)CC2)cc1 (stereo unspecified)	25.9µM*	nt	nt
3	CC1(C(=O)NC2CCN(Cc3ccccc3)CC2)CCN1Cc1cc2ccccc2o1 (stereo unspecified)	?	nt	nt
4	COc1ccc(NC(=O)C2(C)CCN2Cc2ccc(OC(F)(F)F)cc2)cc1OC (stereo unspecified)	23.1µM*	nt	nt
5	COc1ccc(NC(=O)C2(C)CCN2Cc2ccc(SC)cc2)cc1OC (stereo unspecified)	16.4µM*	nt	nt
6	COCC(=O)Nc1ccc(S(=O)(=O)NCCc2ccccc2)cc1	-20.0%	6.5%	-1.7%
7	COc1ccc([C@@H]2C[C@@H](c3ccccc3)Oc3cc(OC)c(OC)c(OC)c32)cc1	?	2.5%	0.2%
8	Oc1c(Br)cc(/C=N/Nc2nncc3ccccc23)cc1Br	?	nt	-4.7%

cpd	miR-21 reporter	DT40 TDP1 no CPT
1	nt	20.6µM*
2	nt	18.4µM*
3	nt	-85.1%
4	nt	?
5	nt	?
6	12.6%	-21.4%
7	-1.6%	?
8	-39.1%	23.1µM*

# The list continues:
cpd	mol	DT40 TDP1 CPT	TDP1 inh	uPA generation
9	CC(=O)Nc1ccc(NC(=O)CSc2nc3ccccc3nc2N2CCOCC2)cc1	-24.0%	-1.1%	nt
10	Cc1ccc(NC(=O)CSc2nc3ccccc3nc2N2CCCC2)cc1	11.6µM*	nt	-15.6%
11	CC1CCN(c2nc3ccccc3nc2SCC(=O)Nc2ccccc2C(C)C)CC1	18.4µM*	-6.3%	nt
12	CCc1ccc(NC(=O)CSc2nc3ccccc3nc2Cc2ccc(C)cc2)cc1	?	-5.4%	nt
13	Clc1ccc(-c2cc3ccccc3nc2N2CCCC2)cc1	?	nt	8.6%
14	Cc1cc(C)c(NC(=O)CSc2nc3ccccc3nc2N2CCCCC2)c(C)c1	7.31µM*	2.1%	nt
15	CC(C)NC(=O)CSc1nc2ccccc2nc1N1CCCCC1	?	-2.7%	nt
16	CCCCN(C)C(=O)CSc1nc2ccccc2nc1Cc1ccc(C)cc1	?	0.0%	nt

cpd	miR-21 reporter	DT40 TDP1 no CPT
9	-2.0%	-22.7%
10	-47.9%	9.2µM*
11	10.1%	?
12	-1.4%	16.4µM*
13	0.7%	18.4µM*
14	-2.5%	14.6µM*
15	1.9%	?
16	20.1%	16.4µM*

# Following part:
cpd	mol	DT40 TDP1 CPT	TDP1 inh	uPA generation
17	CCc1ccc(NC(=O)CSc2nc3ccccc3nc2N2CCCC2)cc1	10.3µM*	nt	-3.4%
18	CC(C)c1ccc(NC(=O)CSc2nc3ccccc3nc2N2CCCC2)cc1	18.4µM*	nt	1.5%
19	COc1cccc2c1cc1c(=O)n(CC(=O)N3CCCCC3)nc(C)n12	-0.6%	-2.0%	nt
20	Cc1cc(NC(=O)CCSc2ccc(Cl)cc2)no1	13.6%	1.2%	3.7%
21	O=C(CSc1nc2ccccc2nc1N1CCCC1)Nc1ccc(Cl)cc1	?	nt	-3.6%
22	CC1CCN(C(=O)c2cccc(NC(=O)c3cccs3)c2)CC1	-9.2%	6.5%	0.0%
23	CC(C)C1OC(c2cccc(NC(=O)c3cccs3)c2)OCC1(C)C (stereo unspecified)	?	-1.3%	-1.8%
24	NC(=O)c1ncn([C@@H]2O[C@H](CNCc3ccccc3OCc3ccc(Cl)cc3Cl)[C@@H](O)[C@H]2O)n1	-26.8%	nt	-5.4%

cpd	miR-21 reporter	DT40 TDP1 no CPT
17	-7.1%	4.61µM*
18	-7.9%	13µM*
19	-1.8%	-13.5%
20	-8.3%	2.3%
21	-8.1%	25.9µM*
22	6.8%	-11.3%
23	18.9%	23.1µM*
24	nt	-18.0%

# Later entries:
cpd	mol	DT40 TDP1 CPT	TDP1 inh	uPA generation
25	O=c1ccn([C@@H]2O[C@H](CNCc3ccccc3OCc3ccc(Cl)cc3Cl)[C@@H](O)[C@H]2O)c(=O)[nH]1	20.6µM*	nt	nt
26	CS(=O)(=O)Nc1cccc(C2=NN(C(=O)c3ccc(F)cc3)C(c3cccs3)C2)c1 (stereo unspecified)	?	nt	?
27	CS(=O)(=O)N1N=C(c2ccc(Br)cc2)CC1c1cccs1 (stereo unspecified)	20.6µM*	7.9%	-1.6%
28	Cc1cccc(C(=O)N2N=C(c3ccc(NS(C)(=O)=O)cc3)CC2c2cccs2)c1 (stereo unspecified)	23.1µM*	nt	4.3%
29	CCS(=O)(=O)Nc1ccc(C2=NN(C(=O)c3ccccc3)C(c3cccs3)C2)cc1 (stereo unspecified)	23.1µM*	2.1%	2.3%
30	O=C(CCc1nnc(COc2ccccc2)o1)NC1(c2ccccc2)CC1	-1.4%	1.2%	9.1%
31	O=C(NCc1ccccc1Cl)c1cnc2sc(N3CCCCC3)nn2c1=O	13µM*	2.6%	nt
32	CCCCOc1ccc(CNC(=O)c2cnc3sc(N4CCCCCC4)nn3c2=O)cc1	-13.3%	8.4%	nt

cpd	miR-21 reporter	DT40 TDP1 no CPT
25	nt	?
26	5.3%	?
27	-59.8%	25.9µM*
28	4.9%	-19.3%
29	14.7%	20.6µM*
30	-1.5%	0.9%
31	-1.8%	9.2µM*
32	-4.0%	-19.6%

# An excerpt from above, reduced to DT40 TDP1 CPT and uPA generation:
no. | smiles | DT40 TDP1 CPT | uPA generation
28 | Cc1cccc(C(=O)N2N=C(c3ccc(NS(C)(=O)=O)cc3)CC2c2cccs2)c1 (stereo unspecified) | 23.1µM* | 4.3%
29 | CCS(=O)(=O)Nc1ccc(C2=NN(C(=O)c3ccccc3)C(c3cccs3)C2)cc1 (stereo unspecified) | 23.1µM* | 2.3%

# More records follow.
cpd	mol	DT40 TDP1 CPT	TDP1 inh	uPA generation
33	CCOc1ccc(CCNC(=O)c2cnc3sc(N4CCCCCC4)nn3c2=O)cc1	18.4µM*	4.5%	nt
34	O=C(NCCc1ccccc1)c1cnc2sc(N3CCCCCC3)nn2c1=O	?	4.5%	nt
35	COc1ccc(CNC(=O)c2cnc3sc(N4CCCC4)nn3c2=O)cc1OC	9.2µM*	1.9%	nt
36	CCOc1ccc(CNC(=O)c2cnc3sc(N4CCCCCC4)nn3c2=O)cc1OC	-16.8%	7.1%	nt
37	Cc1c(NC(=O)Cc2cccs2)cccc1[N+](=O)[O-]	0.7%	-8.2%	-4.3%
38	CC(=O)c1cc2c(cc1N/C(=N/S(=O)(=O)c1ccccc1)c1ccc(Cl)cc1)OCO2	-3.3%	5.4%	-5.6%
39	COCCNC(=O)c1cnc2sc(N3CCCCC3)nn2c1=O	1.1%	-2.6%	nt
40	O=C(NCCc1ccccc1)c1cnc2sc(N3CCCCC3)nn2c1=O	8.2µM*	0.0%	nt

cpd	miR-21 reporter	DT40 TDP1 no CPT
33	-7.4%	18.4µM*
34	0.8%	13µM*
35	6.6%	?
36	-9.1%	-26.6%
37	-9.7%	8.9%
38	-5.2%	-4.7%
39	-1.3%	-3.8%
40	-13.2%	20.6µM*

# (more compounds)
cpd	mol	DT40 TDP1 CPT	TDP1 inh	uPA generation
41	O=C(NC1CCCC1)C(c1cccnc1)N(C(=O)c1csnn1)c1ccc(F)cc1 (stereo unspecified)	-21.8%	2.9%[0.0935 µM]	2.9%
42	COc1ccc(C(=O)N2CCC(C)(C(=O)NS(=O)(=O)C3CC3)C2)cc1F (stereo unspecified)	-20.0%	nt	nt
43	Cc1ccc(-n2ncc3c(NC4CCCCC4)ncnc32)cc1	?	7.8%	nt
44	Cc1ccc(-n2ncc3c(NC4CCCCCC4)ncnc32)cc1	13µM*	-2.6%	nt
45	Cc1ccc(C)c(Nc2ncnc3c2cnn3-c2ccc(F)cc2)c1	?	2.6%	nt
46	CC(C)Nc1ncnc2c1cnn2-c1ccc(Cl)cc1	?	nt	12.6µM*
47	Fc1ccc(-n2ncc3c(NC4CCCCCC4)ncnc32)cc1	23.1µM*	-2.6%	nt
48	Cc1ccc(-n2ncc3c(N4CCCCCC4)ncnc32)cc1	?	-2.6%	nt
49	Fc1ccc(-n2ncc3c(N4CCCCCC4)ncnc32)cc1	11.6µM*	2.6%	nt
50	CCCCNc1nc(C)nc2c1nc(-c1ccccc1)n2CC1CCCN1CC (stereo unspecified)	nt	6.3%	nt

cpd	miR-21 reporter	DT40 TDP1 no CPT
41	-1.3%	-13.8%
42	nt	-9.0%
43	-1.7%	20.6µM*
44	-31.3%	18.4µM*
45	-43.8%	?
46	0.3%	?
47	-37.6%	23.1µM*
48	?	?
49	-0.6%	?
50	nt	nt

# 3 of these compounds, reformatted:
45	Cc1ccc(C)c(Nc2ncnc3c2cnn3-c2ccc(F)cc2)c1
  DT40 TDP1 CPT: ?
  TDP1 inh: 2.6%
  uPA generation: nt
  miR-21 reporter: -43.8%
  DT40 TDP1 no CPT: ?

46	CC(C)Nc1ncnc2c1cnn2-c1ccc(Cl)cc1
  DT40 TDP1 CPT: ?
  TDP1 inh: nt
  uPA generation: 12.6µM*
  miR-21 reporter: 0.3%
  DT40 TDP1 no CPT: ?

47	Fc1ccc(-n2ncc3c(NC4CCCCCC4)ncnc32)cc1
  DT40 TDP1 CPT: 23.1µM*
  TDP1 inh: -2.6%
  uPA generation: nt
  miR-21 reporter: -37.6%
  DT40 TDP1 no CPT: 23.1µM*
